Data on 41 molecules can be found in PubChem BioAssay AID624418 (National Center for Advancing Translational Sciences (NCATS), 2012).

SMILES strings stand for the structures. This is a selection; strong and weak results do not stand in their true shares. Inconclusive results are not listed. Active and inactive are the calls of the source. Calls come from the whole dose curve; as a rule, active = well fitted inhibition curve with a large enough effect; inconclusive = small, poorly fitted or top-dose-only effect, or another doubt; inactive = no such curve, though single readings can be large or run the other way.
% is set by controls: 0 for no effect and ±100 for the full control effect; potency is the fitted concentration of half-maximal effect.

The nature of the test: qHTS of GLP-1 Receptor Inverse Agonists: Cytotox Screen.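 Note: loss of luciferase light is scored as toxicity.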 The conditions noted are these: HEK293 cAMP-luciferase reporter cells, luminescence, 24 h; series mostly up to 38.3 µM; activity change, negative = inhibition: at the top concentration. An excerpt: The overall goal of this project was to develop a novel assay for discovering small molecule ligands for class B1 G protein-coupled receptors (GPCRs). Very few agonists (or inverse agonists) with generally weak activity for this entire group of physiologically important receptors are known to date. To establish proof-of-principle that this critical bottleneck can be overcome with a suitable screening approach, our studies focused on the class B1 receptor for glucagon-like peptide-1 (GLP-1R), a potential therapeutic target for diabetes and neurodegenerative disease.
The assay was developed using a cell-based functional readout. Toward this goal, stably transfected HEK293 cell clones were established that co-express (i) a cAMP-responsive luciferase reporter gene, and (ii) constitutively active GLP-1R that upon ligand interaction inhibit (inverse agonists) the luciferase activity. In addition, two control cell lines were developed: (i) one that express only the cAMP-responsive reporter gene to enable initial exclusion of GLP-1R independent effects of candidate probes; and (ii) one with the reported gene cloned with another constitutively active orphan receptor GPR119 to enable exclusion of GLP-1R independent inhibitor effects of candidate inverse agonists.
To that end, this assay was optimized for 1536-well format and screened against the MLSMR. Then the same collection was run in this cytotoxicity assay where inhibition was the undesired outcome.
NIH Molecular Libraries Probe Production Network [MLPCN]
NIH Chemical Genomics Center [NCGC]
PI Name: Martin Beinborn, Tufts Medical Center
Six ul of cell suspension (200 cells/uL in DMEM + 10% Nu serum + 1% pen-strep) is dispensed in a white solid 1536-well plate. The plates are incubated for 12 hours at 37 deg C at 5% CO2 followed by addition of 23 nL compounds. After 24 hr incubation at 37 deg C and 5% CO2, 3 uL of luciferase assay detection reagent is added. A luminescence read is obtained on the PerkinElmer Viewlux after 12 min incubation at room temperature.
For orientation: In qHTS, concentration-response curves come from the screen itself.
Consider `O=[N+]([O-])c1cccc(NC2=NCC(CBr)S2)c1` (stereo unspecified), for which the “activity change, negative = inhibition” value is inactive: -13.7%.
For `COC(=O)C1(C)COP(=O)(Nc2ccccc2)OC1` (stereo unspecified), the “activity change, negative = inhibition” value is inactive: -12.3%.
Same read-out and setting: the value for `O=C(O)CNc1ccc([As](=O)(O)O)cc1` was inactive: 7.15%; that for `Nc1ccc(CCCCOc2ccccc2)cc1` was inactive: -11.1%.
As for `COc1ccc(N)c([N+](=O)[O-])c1[N+](=O)[O-]`, the “activity change, negative = inhibition” value was inactive: -34.6%.
The same measure, in the same setting: the value for `CN(C)C1(CNC(=O)c2ccc(Cl)c(S(N)(=O)=O)c2)CCCCC1` was inactive: 0.792%; that for `O=P(Nc1ccccn1)(c1ccc(Br)cc1)c1ccc(Br)cc1` was inactive: -7.77%; that for `C[C@H]1OP(=O)(Oc2ccccc2)[C@H](O)[C@H](O)[C@H]1N=[N+]=[N-]` (stereo partly specified) was inactive: 5.26%.
Same read-out and setting: the value for `O=P(Nc1nc2ccccc2s1)(c1ccccc1)c1ccccc1` was inactive: -13.8%; that for `O=[N+]([O-])c1ncn(CCn2cnc([N+](=O)[O-])n2)n1` was inactive: -0.0623%; that for `CC(=O)NC(SC(=S)N(C)C)C(Cl)(Cl)Cl` (stereo unspecified) was inactive: -16.2%.
`O=[N+]([O-])c1ccc(O)c(/C=N/Nc2ccc([N+](=O)[O-])cc2[N+](=O)[O-])c1`: the Potency is active: 10 µM.
For `O=[As](O)(c1ccccc1)c1ccc(O)cc1`, the “activity change, negative = inhibition” value was inactive: -8%.
For `Nc1ccc([As](=O)(O)c2ccc([N+](=O)[O-])cc2)cc1`, the “activity change, negative = inhibition” value is inactive: 2.84%.
The same measure, in the same setting: the value for `C(Cc1nn[nH]n1)Cc1nn[nH]n1` was inactive: 0.778%.
Same read-out and setting: the value for `O=C(OC1CN2CCC1CC2)c1cccc(Cl)c1` (stereo unspecified) was inactive: -9.64%; that for `O=P(Nc1nccs1)(c1ccccc1)c1ccccc1` was inactive: -1.56%.
In the case of `CC(C)C(=O)NC(Sc1ccccc1)C(Cl)(Cl)Cl` (stereo unspecified), the “activity change, negative = inhibition” value was inactive: 14.8%.
Consider `c1nnnn1CCn1cnnn1`, for which the “activity change, negative = inhibition” value was inactive: 0.438%.
Take `CCOc1ccc(C2=NCC(CBr)S2)cc1` (stereo unspecified): the “activity change, negative = inhibition” value was inactive: 2.62%.
On the same count and under the same terms, the value for `O=P1(Nc2nc3ccc(Cl)cc3s2)COc2ccccc2O1` (stereo unspecified) was inactive: -7.52%; that for `CCc1cc(O)c([N+](=O)[O-])c(C)c1[N+](=O)[O-]` was inactive: -0.683%.
Still for that read-out and setting: the value for `CC(C)(C)C(=O)NC(Sc1ccccc1)C(Cl)(Cl)Cl` (stereo unspecified) was inactive: -2.43%; that for `COC(=O)C1(C)COP(=O)(NCc2ccccc2)OC1` (stereo unspecified) was inactive: -2.2%; that for `CC(=O)c1ccc(N2CC2c2ccncc2)cc1` (stereo unspecified) was inactive: 3.64%.
The same measure, in the same setting: the figure for `C[C@@H]1C=CCP(=O)(Oc2ccccc2)O1` (stereo partly specified) is inactive: 8%.
For the molecule `C[C@H]1OP(=O)(Oc2ccccc2)C[C@@H]2O[C@@H]21` (stereo partly specified), the “activity change, negative = inhibition” value is inactive: 3.45%.
Consider `Cc1ccccc1CN(C)C(=O)COC(=O)C(O)(c1ccccc1)c1ccccc1`, for which the “activity change, negative = inhibition” value was inactive: 9.35%.
Same read-out and setting: the value for `CC(=O)Nc1ccc(Oc2c([N+](=O)[O-])cc([N+](=O)[O-])cc2[N+](=O)[O-])cc1` was inactive: -23.7%; that for `CC(=O)Nc1ccc([As](=O)(O)O)c(O)c1` was inactive: 3.27%.
Still for that read-out and setting: the value for `O=C(NC1CCS(=O)(=O)C1)NP(=S)(Oc1ccccc1)Oc1ccccc1` (stereo unspecified) was inactive: 7.24%; that for `CCNC(=S)/N=C(\N)N[N+](=O)[O-]` was inactive: -12.6%.
Same read-out and setting: the value for `Cc1ccc(NP(=O)(Oc2cccc(C)c2)Oc2cccc(C)c2)nc1` was inactive: 3.91%; that for `c1ccc(-c2nn[nH]n2)c(-c2nn[nH]n2)c1` was inactive: -2.9%.
As to `O=P1(N(CCCl)CCCl)OCCC2CCCCN21` (stereo unspecified), the “activity change, negative = inhibition” value is inactive: -3.19%.
With `Cc1ccc(OP(=O)(Nc2ccccn2)Oc2ccc(C)cc2)cc1`, the “activity change, negative = inhibition” value was inactive: 3.31%.
Regarding `COC(=O)c1cc2c(s1)N=C(c1ccccc1)N(C)P2(=O)N1CCOCC1` (stereo unspecified), the “activity change, negative = inhibition” value was inactive: -3.56%.
Take `CCC(=O)N1C2C3N(C(=O)CC)C1C1N(C(=O)CC)C(C(N1C(=O)CC)N3C(=O)CC)N2C(=O)CC`: the “activity change, negative = inhibition” value was inactive: 1.03%.
Still for that read-out and setting: the figure for `O=C(OC1CN2CCC1CC2)c1ccccc1` (stereo unspecified) is inactive: -0.133%.
Same read-out and setting: the value for `CN(C)C(=O)Oc1noc2ccccc12` was inactive: 6.8%; that for `CC(NC(=O)COC(=O)C(O)(c1ccccc1)c1ccccc1)c1ccccc1` (stereo unspecified) was inactive: 4.69%.
